This series in a line: Partition coefficient, log P of the compound. In kind it is physicochemical. The note with it: octanol/water.

In the case of `c1ccc2c(NCCCCNc3c4c(nc5ccccc35)CCCC4)c3c(nc2c1)CCCC3`, the LogP – broadly, the decadic logarithm of the partition coefficient of the neutral form, usually between octanol and water – is 6.74.
The value for `c1ccc2c(NCCCNc3c4c(nc5ccccc35)CCCC4)c3c(nc2c1)CCCC3` was 6.28.

The values above are taken from ChEMBL document CHEMBL1149509, “Search of antitubercular activities in tetrahydroacridines: synthesis and biological evaluation” (Bioorg Med Chem Lett, 2006).
